Measured values published in US20230398161A1 (priority 2020, published 2023).

Tested on: 300-strain clinical isolate panel with an additional 4 strains
Experiment: Host range of CK618 and antibiotics alone and in combination, 304-isolate panel
Assay type: cell-based, E. coli
Conditions: antibiotic at concentration printed after name plus CK618

## CC1=C(C(=O)O)N2C(=O)[C@@H](NC(=O)[C@H](N)c3ccccc3)[C@H]2SC1 [Cephalexin]
  Host range % on all strains (n = 304), Combination: Antibiotic + LBP-CK618: 85.5%
